Assays:
[1] = Lipophilicity, partition coefficient by shake-flask method (1-octanol/PBS); assay type: physicochemical; conditions: 1-octanol/PBS pH 7.4, three repeats
Protocol: Lipophilicity studies were performed for the radiotracer [^99mTc]Tc-AGT-7. […] The partition coefficients (P) were determined using the shake-flask method and are expressed as logP (Table 1).
The lipophilicity of the radiolabeled complexes was assessed by determining the partition coefficient (P) using the shake-flask method. Briefly, in a centrifuge tube, 1 mL of 1-octanol and 1 mL PBS (0.01 M, pH 7.4) was mixed with 1–2 μCi of each of the radiolabeled complexes. The samples were vortexed for 1 min, and the radioactivity of 200 μL aliquots from each phase was measured using a gamma counter. The partition coefficient was calculated according to the following equation:(1) P = counts/mL on the 1 − octanol phase/counts/mL on the PBS phase
The results were expressed as logP. The procedure was repeated three times.

[2] = Ex vivo biodistribution in normal CFW mice; conditions: for Biodistribution Blood / Biodistribution Bone / Biodistribution Brain / Biodistribution Heart / Biodistribution Intestine / Biodistribution Kidney / Biodistribution Liver / Biodistribution Lung / Biodistribution Muscle / Biodistribution Pancreas / Biodistribution Spleen / Biodistribution Stomach: i.v. tail vein
Protocol: For the ex vivo biodistribution studies, normal Carworth Farms White (CFW) mice of both genders were used. The mice were housed in individually ventilated cages (IVCs) under a constant temperature (22 ± 2 °C) and humidity (45–50%) and a 12 h light/dark cycle, with free access to food and water. The animals were obtained from the breeding facilities of the Institute of Biosciences and Applications, NCSR “Demokritos”. The experimental animal facility is registered according to Greek Presidential Decree 56/2013 (Reg. Number: EL 25 BIO 022), in accordance with European Directive 2010/63, which is harmonized with national legislation, on the protection of animals used for scientific purposes. All applicable national guidelines for the care and use of animals were followed. The study protocol was approved by the Department of Agriculture and Veterinary Service of the Prefecture of Athens (Protocol Number 634365/27-7-21). These studies have been further approved by our institutional ethics committee, and the procedures followed are in accordance with institutional guidelines. Intravenous injections were performed using insulin syringes BD Micro-Fine 1 mL (29G). The animals were euthanized in a chamber saturated with isofluorane vapors (isoflurane 1000 mg/g, Iso-Vet, Chanelle Pharma). The radioactivity of samples and syringes was measured using a dose calibrator (Capintec, Ramsey, NJ, USA), while a Cobra II automatic gamma counter (Canberra, Packard, Schwadorf, Austria), was used to measure the radioactivity of the samples from the ex vivo biodistribution studies.
The ex vivo behavior of the two radiolabeled complexes was evaluated in mixed-gender CFW mice, 6–8 weeks old, weighing 20–30 g. The radiotracers were intravenously injected via the tail vein (100 μL/~100 μCi). At 1 and 24 h post-administration, the animals were euthanized by isoflurane inhalation, and the major organs and tissues of interest (blood, liver, heart, kidneys, stomach, intestines, spleen, muscle, lung, bone, pancreas, and brain) were collected, weighed, and measured in an automatic gamma counter. For the calculation of the injected dose in each animal, a standard solution was prepared, while the radioactivity remaining in the tail was subtracted. The syringes containing the radiolabeled samples were measured before and after injection, to determine the precise dose administered to each mouse. All measurements were corrected for background and radioactive decay. All the distribution data were calculated as the percentage of injected dose per gram (%ID/g).

## Technetium-99m Tetrofosmin [[^99mTc]Tc-TF]
[1]
  LogP Experimental: 2.41 ± 1.03
[2]
  myocardial accumulation (heart uptake): > 20 % ID/g
[2]; 1 h post-injection
  Biodistribution Blood: 0.74 %ID/g
  Biodistribution Bone: 2.22 %ID/g
  Biodistribution Brain: 0.17 %ID/g
  Biodistribution Heart: 21.20 %ID/g
  Biodistribution Intestine: 8.37 %ID/g
  Biodistribution Kidney: 32.94 %ID/g
  Biodistribution Liver: 10.20 %ID/g
  Biodistribution Lung: 1.36 %ID/g
  Biodistribution Muscle: 2.46 %ID/g
  Biodistribution Pancreas: 4.37 %ID/g
  Biodistribution Spleen: 1.39 %ID/g
  Biodistribution Stomach: 5.39 %ID/g
[2]; 24 h post-injection
  Biodistribution Blood: 0.02 %ID/g
  Biodistribution Bone: 0.20 %ID/g
  Biodistribution Brain: 0.01 %ID/g
  Biodistribution Heart: 0.63 %ID/g
  Biodistribution Intestine: 0.23 %ID/g
  Biodistribution Kidney: 0.54 %ID/g
  Biodistribution Liver: 0.27 %ID/g
  Biodistribution Lung: 0.06 %ID/g
  Biodistribution Muscle: 0.50 %ID/g
  Biodistribution Pancreas: 0.35 %ID/g
  Biodistribution Spleen: 0.06 %ID/g
  Biodistribution Stomach: 0.11 %ID/g

From paper PMC12388980, “Development of AGT-7: An Innovative ^99mTc-Labeled Theranostic Platform for Glioblastoma Imaging and Therapy” (Pharmaceuticals, 2025)
